The chains behind the UniProt entries cited, without tags or fusion partners. A line that says so, or that is headed by a name, gives the form on record, which may keep a tag or linker. Residues count along the entry.
UniProt Q5XXA6, 42-1049 with tags or gaps isoform 5 DEL539-564 limits assumed: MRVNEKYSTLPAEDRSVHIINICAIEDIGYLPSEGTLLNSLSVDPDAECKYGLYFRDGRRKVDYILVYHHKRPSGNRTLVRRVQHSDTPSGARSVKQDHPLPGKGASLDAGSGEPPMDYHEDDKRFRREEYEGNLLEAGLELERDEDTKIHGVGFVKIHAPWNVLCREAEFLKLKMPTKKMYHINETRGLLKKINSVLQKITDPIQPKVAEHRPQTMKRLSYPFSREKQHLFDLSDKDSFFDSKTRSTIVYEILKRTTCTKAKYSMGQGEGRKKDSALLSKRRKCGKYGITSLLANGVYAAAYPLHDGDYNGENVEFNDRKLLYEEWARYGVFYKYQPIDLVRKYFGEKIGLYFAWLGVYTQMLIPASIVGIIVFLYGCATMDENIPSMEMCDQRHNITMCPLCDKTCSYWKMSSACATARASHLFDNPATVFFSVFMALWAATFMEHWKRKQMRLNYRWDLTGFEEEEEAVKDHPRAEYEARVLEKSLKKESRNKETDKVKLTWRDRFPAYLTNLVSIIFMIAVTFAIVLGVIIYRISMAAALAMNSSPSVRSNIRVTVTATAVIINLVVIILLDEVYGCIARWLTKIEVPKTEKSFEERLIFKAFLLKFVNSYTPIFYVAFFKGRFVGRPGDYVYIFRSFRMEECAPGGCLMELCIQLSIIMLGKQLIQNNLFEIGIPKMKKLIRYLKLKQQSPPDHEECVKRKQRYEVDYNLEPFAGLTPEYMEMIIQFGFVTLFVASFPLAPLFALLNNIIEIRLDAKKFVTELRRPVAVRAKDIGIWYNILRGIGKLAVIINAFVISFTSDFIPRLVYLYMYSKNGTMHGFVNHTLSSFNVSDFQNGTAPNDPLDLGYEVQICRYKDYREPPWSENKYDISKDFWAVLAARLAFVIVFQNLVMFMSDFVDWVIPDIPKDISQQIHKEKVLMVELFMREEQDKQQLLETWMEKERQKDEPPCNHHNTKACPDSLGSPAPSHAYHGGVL

In patent US9790218B2, “Small molecule activators of calcium-activated chloride channels and methods of use” (The Regents of the University of California, priority 2011, dated 2017):

target: human TMEM16A (Homo sapiens, UniProt Q5XXA6, DEL476-501); assay: Fluorescence plate reader assay of TMEM16A-mediated I^− influx (YFP halide sensor); format: cell-based; conditions: Eact analogs

Q: `COc1cc(C(=O)N(CC2CCCO2)c2nc(-c3ccc(F)cc3)cs2)cc(OC)c1OC` (stereo not shown) was tested. Which EC50 did it give?
A: 3 µM

Q: How did the EC50 turn out when `COc1ccc(-c2csc(N(CC3CCCO3)C(=O)c3cc(OC)c(OC)c(OC)c3)n2)cc1` (stereo not shown) was run?
A: 8 µM

Q: With `COc1cc(C(=O)N(Cc2ccco2)c2nc(-c3ccccc3)cs2)cc(OC)c1OC` as the molecule, how does the EC50 read?
A: 9 µM

Q: Which EC50 does the source give for `COc1cc(C(=O)N(Cc2ccco2)c2nc(-c3ccc(F)cc3)cs2)cc(OC)c1OC` here?
A: 9 µM

Q: Which EC50 does the source give for `COc1cc(C(=O)N(Cc2ccccc2)c2nc(-c3ccccc3)cs2)cc(OC)c1OC` here?
A: 1 µM

Q: How did the EC50 turn out when `COc1ccc(OC)c(-c2csc(N(Cc3ccccc3)C(=O)c3cc(OC)c(OC)c(OC)c3)n2)c1` was run?
A: 5 µM

Q: `COc1cc(C(=O)N(CC2CCCO2)c2nc(-c3ccccc3)cs2)cc(OC)c1OC` (stereo not shown) was tested. Which EC50 did it give?
A: 4 µM

Q: With `COCCN(C(=O)c1cc(OC)c(OC)c(OC)c1)c1nc(-c2ccc(OC)cc2)cs1` as the molecule, how does the EC50 read?
A: 5 µM

Q: With `COc1cc(C(=O)N(Cc2ccccc2)c2nc(-c3ccc(Cl)cc3)cs2)cc(OC)c1OC` as the molecule, how does the EC50 read?
A: 4 µM

Q: Which EC50 does the source give for `COc1cc(C(=O)N(CC2CCCO2)c2nc(-c3ccc(Cl)cc3)cs2)cc(OC)c1OC` (stereo not shown) here?
A: 3 µM
